The target in this assay is T1, DPF domain of MORF (Homo sapiens, UniProt Q8WYB5).
T1 sequence (Q8WYB5 211-322): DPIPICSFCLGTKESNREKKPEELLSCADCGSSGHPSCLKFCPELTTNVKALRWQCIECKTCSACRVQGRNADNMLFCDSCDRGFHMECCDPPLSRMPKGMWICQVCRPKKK
The assay is described as follows: 1H,15N HSQC NMR titration of 15N-labeled MORF DPF. It counts as binding. The note with it: 0.15 mM 15N-labeled MORF DPF, 1xPBS pH 6.5, 5 mM DTT, 8–10% D2O, 298K, 600 MHz.

As to “H3K14ac: histone H3 peptide (residues 1-19 of H3) acetylated at lysine 14, synthesized by Synpeptide”, the “exchange regime on the NMR time scale” value is “intermediate exchange regime”.

As to “H3K14hib: histone H3 peptide (residues 1-19 of H3) 2-hydroxyisobutyrylated at lysine 14, synthesized by Synpeptide”, the “exchange regime on the NMR time scale” value was “intermediate exchange regime”.

For “H3K14su: histone H3 peptide (residues 1-19 of H3) succinylated at lysine 14, synthesized by Synpeptide”, the “exchange regime on the NMR time scale” value is listed as “intermediate exchange regime”.
